The record followed here is ChEMBL document CHEMBL2321834 (J Med Chem, 2013).

The experiment has as its target T1, 17-beta-hydroxysteroid dehydrogenase type 1 (Homo sapiens, UniProt P14061).
T1 sequence (P14061 whole entry): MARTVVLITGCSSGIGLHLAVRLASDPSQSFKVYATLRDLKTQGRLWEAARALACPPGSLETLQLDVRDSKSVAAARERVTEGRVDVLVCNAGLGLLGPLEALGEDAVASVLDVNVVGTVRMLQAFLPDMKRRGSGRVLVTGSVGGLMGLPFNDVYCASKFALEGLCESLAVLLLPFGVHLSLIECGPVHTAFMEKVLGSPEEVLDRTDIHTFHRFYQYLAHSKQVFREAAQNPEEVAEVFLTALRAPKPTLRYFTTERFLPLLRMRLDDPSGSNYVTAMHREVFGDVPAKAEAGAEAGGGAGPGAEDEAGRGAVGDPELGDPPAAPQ
Kind of experiment: Inhibition of 17beta-HSD1 in human placental cytosolic fraction using [3H]E1 as substrate assessed as formation of E2 by HPLC analysis.

Broadly, the IC50 is the concentration at which inhibition is half-maximal. Turning to `COc1cccc(N(C)C(=O)c2ccc(-c3cccc(OC)c3F)s2)c1`, the half-maximal inhibitory concentration (IC50) is > 50 µM.
